Protein sequences, listed by entry. Tags and fused reporters are not part of them. Lines headed by an entry give the natural chain unless they say otherwise; changes in a name come on top.
UniProt P41597: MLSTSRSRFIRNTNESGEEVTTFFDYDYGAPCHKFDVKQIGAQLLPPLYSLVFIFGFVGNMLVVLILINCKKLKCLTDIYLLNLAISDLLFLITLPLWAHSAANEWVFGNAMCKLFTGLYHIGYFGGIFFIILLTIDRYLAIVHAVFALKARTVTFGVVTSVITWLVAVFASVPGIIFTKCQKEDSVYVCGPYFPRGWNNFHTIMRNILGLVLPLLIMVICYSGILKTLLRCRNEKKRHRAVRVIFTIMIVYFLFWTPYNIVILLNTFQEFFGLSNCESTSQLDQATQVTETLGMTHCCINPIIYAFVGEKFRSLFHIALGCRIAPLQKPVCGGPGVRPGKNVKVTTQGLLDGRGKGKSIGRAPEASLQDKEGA

In ChEMBL document CHEMBL1921678, “The discovery of novel cyclohexylamide CCR2 antagonists” (Bioorg Med Chem Lett, 2011):

What was measured:
[1] = target: T1, C-C chemokine receptor type 2 (Homo sapiens, UniProt P41597); assay: Antagonist activity at human CCR2; type: functional
[2] = target: T1, C-C chemokine receptor type 2; assay: Antagonist activity at CCR2 by calcium mobilization assay; type: functional

NC(=O)C(NC1CCC(c2c[nH]c3ccccc23)CC1)C1CCN(C(=O)/C=C/c2cc(F)c(F)c(F)c2)CC1 (stereo not drawn) was tested. Which IC50 [1] did it give?
Its IC50 is 16 nM.

With NC(=O)C(NC1CCC(c2c[nH]c3ccccc23)CC1)C1CCN(C(=O)/C=C\c2cc(F)cc(F)c2)CC1 (cis isomer) as the compound, how does the IC50 [1] read?
Its IC50 is 740 nM.

For NC(=O)C(NC1CCC(c2c[nH]c3ccccc23)CC1)C1CCN(C(=O)/C=C/c2cc(F)cc(F)c2)CC1 (racemic), which IC50 [2] is on record?
Its IC50 is 6 nM.
